# Patent publication US20220356174A1, “PYRIDIN-2-ONE COMPOUNDS USEFUL AS SMARCA2 ANTAGONISTS” (Epizyme, Inc., priority 2018, published 2022)
# Sequences of proteins named here, by UniProt entry; tags and fusion partners are left off.
# UniProt P51532, whole entry: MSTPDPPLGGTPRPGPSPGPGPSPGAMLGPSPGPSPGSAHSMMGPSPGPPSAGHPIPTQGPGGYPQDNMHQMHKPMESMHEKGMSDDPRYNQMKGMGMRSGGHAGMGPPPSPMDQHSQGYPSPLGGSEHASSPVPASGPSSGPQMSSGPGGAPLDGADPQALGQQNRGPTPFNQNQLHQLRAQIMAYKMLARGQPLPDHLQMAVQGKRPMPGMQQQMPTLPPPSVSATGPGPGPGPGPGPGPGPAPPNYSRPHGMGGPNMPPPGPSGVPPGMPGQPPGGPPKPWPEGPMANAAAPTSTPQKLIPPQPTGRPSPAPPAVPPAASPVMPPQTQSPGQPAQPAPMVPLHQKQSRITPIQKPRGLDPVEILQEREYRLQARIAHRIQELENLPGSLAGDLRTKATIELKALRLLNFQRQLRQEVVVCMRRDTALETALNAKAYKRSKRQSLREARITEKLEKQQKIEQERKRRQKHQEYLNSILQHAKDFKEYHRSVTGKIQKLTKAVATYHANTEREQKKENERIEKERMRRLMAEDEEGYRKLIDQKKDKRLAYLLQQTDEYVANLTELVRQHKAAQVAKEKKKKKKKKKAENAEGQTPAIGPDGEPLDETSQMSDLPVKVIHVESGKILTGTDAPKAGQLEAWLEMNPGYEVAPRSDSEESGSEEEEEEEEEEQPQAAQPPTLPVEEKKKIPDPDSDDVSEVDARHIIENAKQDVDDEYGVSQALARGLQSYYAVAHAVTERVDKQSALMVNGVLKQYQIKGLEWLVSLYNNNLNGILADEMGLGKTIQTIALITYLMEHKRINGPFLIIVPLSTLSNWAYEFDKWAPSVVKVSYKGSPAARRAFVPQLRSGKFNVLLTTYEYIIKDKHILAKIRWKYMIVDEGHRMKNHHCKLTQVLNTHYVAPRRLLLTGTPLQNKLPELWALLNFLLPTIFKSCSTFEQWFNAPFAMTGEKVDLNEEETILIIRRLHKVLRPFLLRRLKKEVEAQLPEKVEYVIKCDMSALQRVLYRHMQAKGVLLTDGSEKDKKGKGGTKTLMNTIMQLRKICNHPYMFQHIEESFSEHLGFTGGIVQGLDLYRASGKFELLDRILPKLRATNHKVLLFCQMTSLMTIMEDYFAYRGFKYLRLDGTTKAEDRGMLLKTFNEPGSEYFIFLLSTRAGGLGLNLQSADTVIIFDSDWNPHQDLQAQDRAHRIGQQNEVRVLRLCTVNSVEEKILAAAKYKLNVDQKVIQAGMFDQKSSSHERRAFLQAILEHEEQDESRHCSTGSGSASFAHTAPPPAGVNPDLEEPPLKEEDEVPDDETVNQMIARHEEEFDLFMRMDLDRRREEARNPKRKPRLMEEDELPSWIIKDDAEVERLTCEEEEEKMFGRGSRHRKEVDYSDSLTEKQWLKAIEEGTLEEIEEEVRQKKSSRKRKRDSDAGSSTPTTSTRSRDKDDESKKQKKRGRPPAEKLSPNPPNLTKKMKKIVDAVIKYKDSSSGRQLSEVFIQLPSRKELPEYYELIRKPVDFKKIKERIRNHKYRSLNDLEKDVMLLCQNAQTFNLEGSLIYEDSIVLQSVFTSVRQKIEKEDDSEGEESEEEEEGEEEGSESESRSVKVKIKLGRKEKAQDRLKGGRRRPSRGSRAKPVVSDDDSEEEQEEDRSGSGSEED
# pIC50: −log10 of the molar value.
# Target: FL-SMARCA4 (Homo sapiens, UniProt P51532)
# Test: SMARCA4 ATPase activity assay (ADP-Glo, chicken mononucleosome substrate)
"pIC50 (FL-SMARCA4 IC50, Table 3.2, ATPase assay, enzyme 5 nM, ATP 250 uM, chicken mononucleosome 10 nM, 30 min preincubation)",pIC50 (FL-SMARCA4 IC50),Structure (SMILES)
< 4.30,,CCn1cc(NC(=O)c2snc(Cl)c2Cl)ccc1=O [Compound 34]
,6.51,O=C(Nc1cc(Cl)c(=O)n(CC(F)F)c1)c1cc(Cl)c(C(F)(F)F)s1 [Compound 79d]
